Data as given in patent US11203777B2, “Method of preparing sterilized compositions for stabilization of extracellular nucleic acids” (Qiagen GmbH, priority 2015, dated 2021).

Tests used:
[1] = HPLC quantification of caspase inhibitor in stabilization reagent before and after gamma irradiation; format: physicochemical
Description: Caspase inhibitor (Q-VD-OPh) was dissolved and diluted in DMSO for generation of a standard curve. Concentrations of 7.5, 15, 30 and 60 μg/ml were used to generate the standard curve.
Stabilization reagents containing a mixture of caspase inhibitor, EDTA, DMPA and PEG were tested before and after gamma irradiation. Unique peaks for caspase inhibitor were identified and compared to the standard curve for total quantification of caspase inhibitor. The concentration of caspase inhibitor was determined before and after irradiation, and these concentrations were compared for relative quantification.
For the production of PAXgene Blood ccfDNA Alpha blood collection tubes (Alpha BCT), BD standard tubes for 10 ml blood draw were filled with 1.3-1.7 ml ccfDNA stabilization reagent. The exemplary stabilization reagents tested comprised a mixture of caspase inhibitor (Q-VD-OPh), K2EDTA, DMPA, PEG300 and PEG10000, according to PCT/EP2015/055699. A vacuum was applied to the tubes to allow for a 10.25 ml blood draw. Tubes were sterilized by gamma irradiation using Cobalt-60 as energetic gamma ray source in a range of 5 to 35 kGy. […]
Stabilization reagents were produced with or without the addition of radical scavengers and sterilized in bulk by gamma irradiation. The caspase inhibitor concentration was measured by HPLC before and after irradiation to determine the effect of scavenger addition on caspase inhibitor degradation during sterilization by gamma irradiation.
Stabilization reagents according to PCT/EP2015/055699 were produced with or without the addition of radical scavengers in different concentrations and with different concentrations of caspase inhibitor. PAXgene Blood ccfDNA Alpha tubes were produced by filling 1.7 ml of the respective stabilization reagent into a standard Vacutainer. Tubes were sterilized by gamma irradiation with different energy levels. The caspase inhibitor concentration was measured by HPLC before and after irradiation (see Table 7 below).

[2] = system: ccfDNA level in whole blood (66 bp and 500 bp fragments of the 18S rDNA gene); assay: ccfDNA stabilization in stored whole blood, real time PCR of 18S rDNA fragments in plasma; settings: 6 days at room temperature
[3] = scavenger 1 mg/ml, casp-inh. 5 μM, 10 kGy

HPLC Testing [C-Inh] [1, 3] [µg/mL] | HPLC Testing [C-Inh] ([1]; scavenger 2 mg/ml, casp-inh. 5 μM, 0 kGy) [µg/mL] | HPLC Testing [C-Inh] ([1]; scavenger 10 mg/ml, casp-inh. 5 μM, 30 kGy) [µg/mL] | HPLC Testing [C-Inh] ([1]; scavenger 0.2 mg/ml, casp-inh. 5 μM, 10 kGy) [µg/mL] | HPLC Testing [C-Inh] ([1]; scavenger 0.5 mg/ml, casp-inh. 5 μM, 0 kGy) [µg/mL] | HPLC Testing [C-Inh] ([1]; scavenger 2 mg/ml, casp-inh. 15 μM, 20 kGy) [µg/mL] | SMILES | protection of ccfDNA stabilization against gamma irradiation (x fold change of 66 bp and 500 bp fragments) ([2]; 0.5, 1.0, 2.0 and 4.0 mg/ml in Alpha tubes, irradiation up to 30 kGy, FIG. 8) | effect on stabilization of extracellular nucleic acids (x fold change of 66 bp and 500 bp fragments) ([2]; 0.5, 1.0, 2.0 and 4.0 mg/ml in non-irradiated (0Gy) Alpha tubes, FIG. 8) | change of copy numbers (x fold change) of 66 bp and 500 bp fragments of the 18S rDNA gene ([2]; scavenger 2 mg/ml in non-irradiated reagent, 8 donors, FIG. 3)
12.7 | 19.4 | 13.2 |  |  |  | O=C1O[C@H]([C@@H](O)CO)C(O)=C1O [Ascorbic acid] |  |  | 
16.8 |  |  | 15.7 | 18.7 |  | N[C@@H](CCC(=O)N[C@@H](CS)C(=O)NCC(=O)O)C(=O)O [Glutathione] |  |  | 
 |  |  |  |  | 46.3 | CC(=O)N[C@@H](CS)C(=O)O [N-acetyl-L-cysteine] | excellent protection | does not interfere with the stabilization of extracellular nucleic acids | possible without affecting the ccfDNA stabilization characteristics
